From patent publication US12441688B1, “CCR5 inhibitor” (KING SAUD UNIVERSITY, priority 2025, dated 2025)

Chains of the proteins cited; added tags and fusions are not shown.
UniProt P51681, whole entry: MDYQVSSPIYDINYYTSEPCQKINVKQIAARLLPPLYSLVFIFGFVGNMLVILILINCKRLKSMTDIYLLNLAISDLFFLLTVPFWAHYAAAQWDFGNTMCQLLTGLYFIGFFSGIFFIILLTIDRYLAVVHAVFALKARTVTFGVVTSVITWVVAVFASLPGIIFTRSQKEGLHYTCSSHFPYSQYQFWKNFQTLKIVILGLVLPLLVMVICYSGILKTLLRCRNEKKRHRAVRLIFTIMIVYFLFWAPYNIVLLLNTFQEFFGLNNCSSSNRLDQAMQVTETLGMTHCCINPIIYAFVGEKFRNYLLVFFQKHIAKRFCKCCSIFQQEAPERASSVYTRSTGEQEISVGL

Molecular target: T1, CCR5 receptor (Homo sapiens, UniProt P51681)
T1 construct: expressed in transfected cells; host or cells: Chinese hamster ovary (CHO) cells expressing the CCR5 receptor, kept under blasticidin S selection
Test: CCR5 binding inhibition assay in CHO cells expressing the CCR5 receptor
Conditions: non-linear regression
Text: All of the reagents and cell lines were obtained from commercial suppliers like Sigma Aldrich, Merck India Ltd., Himedia, and Rankem chemicals. Chinese Hamster Ovaries (CHO) cells expressing the CCR5 receptor were maintained in Ham's F-12 medium supplemented with 10% fetal calf serum, 50 units of penicillin per milliliter, and 50 micrograms of streptomycin per milliliter, in the presence of 5 micrograms of blasticidin S hydrochloride per milliliter. […] The inhibitory activity of the compounds on CCR5 binding was calculated using the formula: [1−(E−N)/(P−N)]×100%.
In this formula, N represents the absorbance at 450 nm in the negative control (the control antibody), while P corresponds to the absorbance in the positive control (the detecting antibody). E corresponds to the absorbance of the test compounds.
The CCR5 binding profiles of 4-(4-((4-(5-isopropyl-3-methyl-1H-pyrazole-4-carbonyl)-1,4-diazepan-1-yl)methyl)phenoxy)benzonitrile compound were determined and compared with those of previously published CCR5 inhibitor, Maraviroc, using in vitro CCR5 inhibition studies. The data was analyzed using non-linear regression analysis to determine the IC50 values for both compounds.

Maraviroc [reference compound] was tested. Which IC50 did it give?
The IC50 was 2.91 nM.
